# Reported melting point values for industrial, environmental and drug-like chemicals

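The OPERA project collected these measurements from public sources as training and test data for property models. One number stands for a compound and property, with no spread given. Conditions of the individual experiments are not part of the data. Where a salt, mixture or single isomer is drawn, the source does not say that exactly this form was tested. Some entries may be limits or estimates that an upstream database listed as plain numbers.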

The melting point is given in degrees Celsius.

The entry for CC(=O)c1cccc(NC(=O)CCl)c1 lists melting point 113 °C.
The entry for O=C(O)C=Cc1ccccn1 lists melting point 202 °C.
The entry for CC(=O)c1ccc(NS(=O)(=O)c2ccc(Cl)cc2)cc1 lists melting point 133 °C.
The entry for NNC(=O)C1CCCC1 lists melting point 113 °C.
The entry for O=C(c1c[nH]c2ccccc12)C(Cl)c1ccccc1 (stereo not drawn) lists melting point 125 °C.
The entry for Nc1cc(Cl)ccc1NCc1ccccc1 lists melting point 79 °C.
The entry for Cn1c(Cc2cccs2)n[nH]c1=S lists melting point 159 °C.
The entry for Cc1cccc(C(=O)N(NC(=O)c2ccccc2)C(C)(C)C)c1C lists melting point 204 °C.
The entry for Cc1n[nH]c(C)c1C=O lists melting point 86 °C.
The entry for CC(=O)CC(=O)Nc1ccc(F)cc1 lists melting point 102 °C.
The entry for O=C(O)c1ccc(-c2ccc(Cl)cc2)s1 lists melting point 261 °C.
The entry for Clc1ccc(Cl)c(OCCBr)c1 lists melting point 58 °C.
The entry for NC(=O)CCc1ccccc1 lists melting point 101 °C.
The entry for Cc1ccc(C(=O)O)cc1S(=O)(=O)Cl lists melting point 144 °C.
The entry for Cn1nc(C(=O)NN)c2ccccc2c1=O lists melting point 135 °C.
The entry for CC(=O)N1c2ccc(S(=O)(=O)Cl)cc2CC1C (stereo not drawn) lists melting point 113 °C.
The entry for O=C(CCl)NCCc1c[nH]c2ccccc12 lists melting point 83 °C.
The entry for NC(c1ccccc1)c1ccncc1 (stereo not drawn) lists melting point 41 °C.
The entry for Nc1oc2ccccc2c(=O)c1C=O lists melting point 250 °C.
The entry for O=C(O)CCNC(=O)Nc1ccccc1 lists melting point 174 °C.
The entry for CCCCNC(=O)OCC lists melting point -22 °C.
The entry for Nc1ccccc1C(=O)NCc1ccccc1 lists melting point 126 °C.
The entry for CCc1ccc(C(N)=S)cc1 lists melting point 49 °C.
The entry for Cc1nc(N)sc1-c1ccccc1 lists melting point 164 °C.
The entry for Nc1cccc(NC(=O)c2cccnc2)c1 lists melting point 156 °C.
The entry for COc1cc(NC(C)CCCN)c2ncccc2c1.O=P(O)(O)O.O=P(O)(O)O (stereo not drawn) lists melting point 198 °C.
The entry for CCOC(=O)c1ccc(N2CCNCC2)nc1 lists melting point 50 °C.
The entry for C=CCOc1ccc(C(=O)O)cc1OC lists melting point 174 °C.
The entry for O=C(O)CNc1ncccn1 lists melting point 170 °C.
The entry for O=C(O)C1CC(=O)N(C2CC2)C1 (stereo not drawn) lists melting point 94 °C.
The entry for Cc1cc(N)n(-c2cccc(C(F)(F)F)c2)n1 lists melting point 90 °C.
The entry for O=C1Nc2cc(OC(F)(F)F)ccc2C1=O lists melting point 184 °C.

The 4 lowest values of melting point among the entries above:

{"smiles": "CCCCNC(=O)OCC", "melting point (°C)": "-22"}
{"smiles": "NC(c1ccccc1)c1ccncc1", "stereo": "stereo not drawn", "melting point (°C)": "41"}
{"smiles": "CCc1ccc(C(N)=S)cc1", "melting point (°C)": "49"}
{"smiles": "CCOC(=O)c1ccc(N2CCNCC2)nc1", "melting point (°C)": "50"}

From the experimental data distributed with OPERA 2.9.